From PubChem BioAssay AID465 (The Scripps Research Institute Molecular Screening Center, 2006)
Only a part is listed here, and it is no random draw. Active and inactive are the calls of the source.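 The calls were made as follows: active = inhibition above the mean of all tested compounds plus 3 SD (cut at about 40% in these data); inactive = the rest.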

Experiment: lowered NF-kB luciferase signal in HEK293 cells – cell-based, HEK-293 luciferase reporter, PMA/ionomycin, luminescence, antigen receptor NF-kB inhibitor project, primary screen (AID 465);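 also: 0% = stimulated DMSO wells and 100% = 10 µM reference inhibitor 5653914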
Conditions: HEK-293 NF-kB luciferase reporter, at 3 µM, stronger effect = higher value

Compound | inhibition
c1nnnn1CCn1cnnn1 | inactive: 4.2%
O=P(Nc1nccs1)(c1ccccc1)c1ccccc1 | inactive: 19.4%
O=C(OC1CN2CCC1CC2)c1cccc(Cl)c1 (stereo not drawn) | inactive: 8.7%
COC(=O)c1cc2c(s1)N=C(c1ccccc1)N(C)P2(=O)N1CCOCC1 (stereo not drawn) | inactive: 20.6%
O=P1(Nc2nc3ccc(Cl)cc3s2)COc2ccccc2O1 (stereo not drawn) | inactive: 3.9%
Cc1c2non([O-])c-2c(C)[n+](=O)[n+]1[O-] | inactive: 18.3%
CCc1nc2c(n1)c1c(non1O)c1c2no[n+]1[O-] | inactive: 30.8%
O=C(COc1ccccc1)OC1CN2CCC1CC2 (stereo not drawn) | inactive: -13.8%
COP1(=S)c2c(C)nn(CCC#N)c2N=C(c2ccc(F)cc2)N1C (stereo not drawn) | inactive: 9.6%
O=C(OC1CN2CCC1CC2)C12CC3CC(CC(C3)C1)C2 (stereo not drawn) | inactive: 18.3%
CCOP1(=S)c2c(C)nn(CCC#N)c2N=C(c2ccc(F)cc2)N1C (stereo not drawn) | inactive: 12.6%
O=P(Nc1nccs1)(c1ccccc1)c1nc2ccccc2s1 (stereo not drawn) | inactive: -2%
CCOP1(=S)c2c(C)nn(CCC#N)c2N=C(c2ccccc2F)N1C (stereo not drawn) | inactive: 15.8%
O=P1(Nc2ccc(Br)cn2)COc2ccccc2OC1 | inactive: 16.9%
O=P1(Nc2ncccn2)COc2ccccc2OC1 | inactive: 8.3%
Cc1nn(-c2ccccc2)c2c1P(=O)(N1CCOCC1)N(C)C(c1ccccc1)=N2 (stereo not drawn) | inactive: 7.4%
Clc1n[nH]nc1-c1nn[nH][15n]1 | inactive: -9%
O=P1(Nc2ccccn2)COc2ccccc2OC1 | inactive: 6.2%
